Laboratory results from BindingDB's records for US10807989.

Chains of the proteins cited; added tags and fusions are not shown.
UniProt P35372, whole entry: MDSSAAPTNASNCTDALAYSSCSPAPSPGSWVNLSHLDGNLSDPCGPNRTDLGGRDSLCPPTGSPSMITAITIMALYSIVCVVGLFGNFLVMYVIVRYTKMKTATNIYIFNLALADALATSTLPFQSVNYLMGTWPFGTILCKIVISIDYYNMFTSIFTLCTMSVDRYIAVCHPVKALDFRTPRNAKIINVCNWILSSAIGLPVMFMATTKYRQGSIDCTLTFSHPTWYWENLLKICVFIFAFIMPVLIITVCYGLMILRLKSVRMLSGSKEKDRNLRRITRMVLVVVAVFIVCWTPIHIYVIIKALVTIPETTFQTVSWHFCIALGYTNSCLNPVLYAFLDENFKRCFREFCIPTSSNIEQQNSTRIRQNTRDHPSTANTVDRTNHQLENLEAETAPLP

Molecular target: Mu-type opioid receptor (Homo sapiens, UniProt P35372)
Assay: ASSAY_NAME: Human Mu-Opioid Peptide (hMOP) Receptor Binding Assay DESCRIPTION: The hMOP receptor binding assay was performed as homogeneous SPA-assay (scintillation proximity assay) using the assay buffer 50 mM TRIS-HCl (pH 7.4) supplemented with […] bovine serum albumin (Sigma-Aldrich Co., St. Louis, Mo.). The final assay volume (250 μl/well) included 1 nM of [N-allyl-2,3-3H]naloxone

CN(C)[C@]1(c2ccccc2)CC[C@]2(CC1)CN(CC(=O)N1C[C@@H](O)[C@@H](O)C1)C(=O)N2CC1CCC1
Ki: 29 nM
